Measurements reported in US12139488B2, “Pyrido[3,2-d]pyrimidine compounds uses thereof for treating a proliferative disease” (Universite de Montreal, priority 2021, dated 2024).
Like-named read-outs stand apart in the source and are kept apart here.

The chains behind the UniProt entries cited, without tags or fusion partners.
UniProt P15056, whole entry: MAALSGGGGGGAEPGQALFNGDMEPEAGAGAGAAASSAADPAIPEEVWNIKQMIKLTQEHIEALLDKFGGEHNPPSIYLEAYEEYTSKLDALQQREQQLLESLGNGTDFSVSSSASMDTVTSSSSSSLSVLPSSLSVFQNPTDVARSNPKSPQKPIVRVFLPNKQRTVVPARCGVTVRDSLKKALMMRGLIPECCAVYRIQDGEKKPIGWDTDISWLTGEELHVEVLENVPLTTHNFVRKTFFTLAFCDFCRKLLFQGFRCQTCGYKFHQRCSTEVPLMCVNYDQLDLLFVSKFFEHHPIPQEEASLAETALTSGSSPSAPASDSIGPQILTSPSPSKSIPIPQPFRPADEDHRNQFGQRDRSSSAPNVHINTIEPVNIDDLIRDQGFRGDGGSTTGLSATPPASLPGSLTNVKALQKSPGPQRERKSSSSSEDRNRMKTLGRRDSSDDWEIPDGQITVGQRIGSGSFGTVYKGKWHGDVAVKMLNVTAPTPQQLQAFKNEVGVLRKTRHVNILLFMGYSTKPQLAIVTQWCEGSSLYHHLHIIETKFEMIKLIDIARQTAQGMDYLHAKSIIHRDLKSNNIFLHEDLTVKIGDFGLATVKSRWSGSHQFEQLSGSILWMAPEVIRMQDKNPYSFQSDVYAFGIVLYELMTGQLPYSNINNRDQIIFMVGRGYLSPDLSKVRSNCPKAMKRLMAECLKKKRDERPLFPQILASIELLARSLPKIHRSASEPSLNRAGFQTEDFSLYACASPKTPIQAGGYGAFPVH
UniProt P04049, whole entry: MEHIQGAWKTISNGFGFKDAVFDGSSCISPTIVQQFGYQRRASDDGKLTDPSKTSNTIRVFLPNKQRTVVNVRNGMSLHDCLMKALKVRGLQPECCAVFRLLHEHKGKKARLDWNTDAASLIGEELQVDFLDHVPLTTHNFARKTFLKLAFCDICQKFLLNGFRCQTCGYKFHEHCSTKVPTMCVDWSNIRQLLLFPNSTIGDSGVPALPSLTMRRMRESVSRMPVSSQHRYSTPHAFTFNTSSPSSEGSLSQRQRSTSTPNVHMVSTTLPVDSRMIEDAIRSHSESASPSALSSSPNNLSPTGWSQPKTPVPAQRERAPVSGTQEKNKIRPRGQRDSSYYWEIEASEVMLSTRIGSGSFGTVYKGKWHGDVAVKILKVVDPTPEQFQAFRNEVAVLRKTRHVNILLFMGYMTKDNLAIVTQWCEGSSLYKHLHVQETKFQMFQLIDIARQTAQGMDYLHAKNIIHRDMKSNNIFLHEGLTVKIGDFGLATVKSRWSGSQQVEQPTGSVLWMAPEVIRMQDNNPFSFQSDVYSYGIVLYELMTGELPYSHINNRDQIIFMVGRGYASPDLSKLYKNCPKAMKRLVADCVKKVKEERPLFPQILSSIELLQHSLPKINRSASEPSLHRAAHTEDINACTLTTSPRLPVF

Legend:
BRAF = BRAF (Homo sapiens (Human), UniProt P15056); assay: BRAF kinase activity assay (ADP-Glo)
CRAF = CRAF (Homo sapiens, UniProt P04049); assay: CRAF kinase activity assay (ADP-Glo)
[1] = system: pERK in HCT-116 cells (KRAS G13D); assay: Phospho-ERK inhibition (AlphaLISA SureFire Ultra p-ERK 1/2), HCT116; conditions: for HCT116 pERK % Ymin (lowest value of the IC50 curve): Ymin above −20% = minimal or no paradoxical activation; for YMIN of pERK IC50 dose response curve (paradoxical induction of pERK signaling): RAS-mutant HCT116 cells, FIG. 1
Summary of the method: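 pERK1/2 (Thr202/Tyr204) AlphaLISA, 1 h cpd, 10 conc. 10 μM→0.33 nM, 0.5% DMSO, RPMI-1640 + 5% FBS. Trametinib = 100%, DMSO = 0%. IC50, 4-param fit.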

[2] = read-out: Kinase IC50 (nM), BRAF biochemical kinase assay, BRAF
[3] = read-out: Kinase IC50 (nM), CRAF biochemical kinase assay, CRAF
[4] = read-out: HCT116 pERK IC50, HCT116 cells
[5] = read-out: Kinase IC50 (nM) BRAF, tested form: formic acid salt
[6] = read-out: Kinase IC50 (nM) CRAF, tested form: formic acid salt
[7] = HCT116 cells, Ymin in brackets, tested form: formic acid salt
[8] = read-out: HCT116 pERK IC50, HCT116 cells, class symbol before the bracket, tested form: formic acid salt
[9] = read-out: Kinase IC50 (nM) BRAF
[10] = read-out: Kinase IC50 (nM) CRAF
[11] = read-out: HCT116 pERK IC50, HCT116 cells, class symbol before the bracket
[12] = lowest % inhibition value of the IC50 curve, HCT116
[13] = read-out: HCT116 pERK IC50 in μM, HCT116 cells, 1 h treatment

| SMILES | IC50 (BRAF; [2]) [nM] | IC50 (CRAF; [3]) [nM] | HCT116 pERK % Ymin (lowest value of the IC50 curve) ([1]; HCT116 cells) [%] | IC50 [1, 4] [µM] | IC50 (BRAF; [9]) [nM] | IC50 (CRAF; [10]) [nM] | HCT116 pERK Ymin % ([1]; HCT116 cells, Ymin in brackets) [%] | IC50 [1, 11] [µM] | further results |
| --- | --- | --- | --- | --- | --- | --- | --- | --- | --- |
| CN1CCN(c2cccc3c2ncn3-c2ccc3ncnc(Nc4c(F)ccc(NS(=O)(=O)c5cccc(Cl)c5Cl)c4F)c3n2)CC1=O | < 1 | < 10 | 12 | < 0.5 |  |  |  |  |  |
| Cc1c(Cl)cccc1S(=O)(=O)Nc1ccc(F)c(Nc2ncnc3ccc(-n4cc(C(=O)N5CC[C@H](N)C5)c5ccccc54)nc23)c1F |  |  |  |  |  |  |  |  | IC50 (BRAF; [5]): < 1 nM; IC50 (CRAF; [6]): 10 to 50 nM; HCT116 pERK Ymin % [1, 7]: 14%; IC50 [1, 8]: 1 to 10 µM |
| O=S(=O)(Nc1ccc(F)c(Nc2ncnc3ccc(-n4cnc5c(N6CC(F)(F)C6)cccc54)nc23)c1F)c1cccc(Cl)c1Cl | > 10 | 10 to 50 | −6 | 0.5 to 1 |  |  |  |  |  |
| COc1ccc(S(=O)(=O)Nc2ccc(F)c(Nc3ncnc4ccc(-n5cnc6c(N7CCC(O)(C(F)(F)F)CC7)cccc65)nc34)c2F)c(C)c1F | > 10 | 10 to 50 | −8 | < 0.5 |  |  |  |  |  |
| O=S(=O)(Nc1ccc(F)c(Nc2ncnc3ccc(-n4cnc5c(N6CC7(CCOCC7)C6)cccc54)nc23)c1F)c1cccc(Cl)c1Cl | > 10 | 10 to 50 | −9 | < 0.5 |  |  |  |  |  |
| O=S(=O)(Nc1ccc(F)c(Nc2ncnc3ccc(-n4nnc5c(N6C7CCC6CC(CCO)C7)cccc54)nc23)c1F)c1cccc(Cl)c1Cl (stereo not shown) | < 1 | 10 to 50 | 4 | < 0.5 |  |  |  |  |  |
| Cc1c(F)cccc1S(=O)(=O)Nc1ccc(F)c(Nc2ncnc3ccc(-n4nc(C(=O)N(C)CCc5ccccn5)c5ccccc54)nc23)c1F |  |  |  |  | < 1 | > 50 | −14.5 | 0.5 to 1 |  |
| Cc1c(Cl)cccc1S(=O)(=O)Nc1ccc(F)c(Nc2ncnc3ccc(-n4nc(C(=O)N5CCN(CCO)CC5)c5ccccc54)nc23)c1F |  |  |  |  | < 1 | < 10 | −5.5 | < 0.5 | YMIN of pERK IC50 dose response curve (paradoxical induction of pERK signaling) [1]: > −20% |
| Cc1c(Cl)cccc1S(=O)(=O)Nc1ccc(F)c(Nc2ncnc3ccc(-n4nc(C(=O)N5CC[C@@H](CO)C5)c5ccccc54)nc23)c1F |  |  |  |  | 1 to 10 | 10 to 50 | −1.1 | < 0.5 |  |
| Cc1c(Cl)cccc1S(=O)(=O)Nc1ccc(F)c(Nc2ncnc3ccc(-n4ccc(C(=O)N5CCN(C)CC5)n4)nc23)c1F |  |  |  |  | 1 to 10 | > 50 | −0.4 | 0.5 to 1 |  |
| Cc1c(F)cccc1S(=O)(=O)Nc1ccc(F)c(Nc2ncnc3ccc(-n4ncc5c(-c6cncnc6)cccc54)nc23)c1F |  |  |  |  | < 1 | < 10 | −0.1 | < 0.5 |  |
| O=C1CCC2(CCN(c3cccc4c3ncn4-c3ccc4ncnc(Nc5c(F)ccc(NS(=O)(=O)c6cccc(Cl)c6Cl)c5F)c4n3)CC2)O1 | 1 to 10 | < 10 | −10 | < 0.5 |  |  |  |  |  |
| O=S(=O)(Nc1ccc(F)c(Nc2ncnc3ccc(-n4nnc5c(N6CCC(CCO)CC6)cccc54)nc23)c1F)c1cccc(Cl)c1Cl | 1 to 10 | 10 to 50 | 2 | < 0.5 |  |  |  |  |  |
| O=S(=O)(Nc1ccc(F)c(Nc2ncnc3ccc(-n4cnc5c(CN6CCOC[C@H]6CO)cccc54)nc23)c1F)c1ccccc1Cl |  |  |  |  | 1 to 10 | 10 to 50 | 2 | 1 to 10 |  |
| COCCCN(C)C(=O)c1nn(-c2ccc3ncnc(Nc4c(F)ccc(NS(=O)(=O)c5cccc(F)c5C)c4F)c3n2)c2ccccc12 |  |  |  |  | < 1 | < 10 | −4.9 | < 0.5 |  |
| Cc1c(F)cccc1S(=O)(=O)Nc1ccc(F)c(Nc2ncnc3ccc(-n4nc(C(=O)N[C@H]5C[C@@H](O)C5)c5ccccc54)nc23)c1F |  |  |  |  | 1 to 10 | 10 to 50 | 10 | < 0.5 |  |
| Cc1c(F)cccc1S(=O)(=O)Nc1ccc(F)c(Nc2ncnc3ccc(-n4nc(C(=O)N5CCOCC5)c5ccccc54)nc23)c1F |  |  |  |  | < 1 | 10 to 50 | −8.5 | < 0.5 |  |
| CN1CCN(C(=O)c2cn(-c3ccc4ncnc(Nc5c(F)ccc(NS(=O)(=O)c6ccccc6Cl)c5F)c4n3)c3ccccc23)CC1 |  |  |  |  | < 1 | 10 to 50 | −10 | < 0.5 | YMIN of pERK IC50 dose response curve (paradoxical induction of pERK signaling) [1]: > −20% |
| Cc1c(F)cccc1S(=O)(=O)Nc1ccc(F)c(Nc2ncnc3ccc(-n4nc(C(=O)NCc5ccccn5)c5ccccc54)nc23)c1F |  |  |  |  | 1 to 10 | 10 to 50 | −6.2 | < 0.5 |  |

| SMILES | IC50 (BRAF; [2]) [nM] | IC50 (CRAF; [3]) [nM] | HCT116 pERK % Ymin (lowest value of the IC50 curve) ([1]; HCT116 cells) [%] | IC50 [1, 4] [µM] | IC50 (BRAF; [9]) [nM] | IC50 (CRAF; [10]) [nM] | HCT116 pERK Ymin % ([1]; HCT116 cells, Ymin in brackets) [%] | IC50 [1, 11] [µM] | further results |
| --- | --- | --- | --- | --- | --- | --- | --- | --- | --- |
| Cc1c(Cl)cccc1S(=O)(=O)Nc1ccc(F)c(Nc2ncnc3ccc(-n4nc(C(=O)N5CCC(C)(O)CC5)c5ccccc54)nc23)c1F |  |  |  |  | < 1 | 10 to 50 | −5.5 | 0.5 to 1 |  |
| Nc1nnc(-c2nn(-c3ccc4ncnc(Nc5c(F)ccc(NS(=O)(=O)c6cccc(Cl)c6Cl)c5F)c4n3)c3ccccc23)o1 |  |  |  |  | < 1 | < 10 | −2 | 1 to 10 |  |
| Cc1c(Cl)cccc1S(=O)(=O)Nc1ccc(F)c(Nc2ncnc3ccc(-n4cnc5c(N6CCC(C)(O)CC6)cccc54)nc23)c1F | 1 to 10 | 10 to 50 | 2 | < 0.5 |  |  |  |  |  |
| O=S(=O)(Nc1ccc(F)c(Nc2ncnc3ccc(-n4cnc5c(N6CCOC[C@@H]6CO)cccc54)nc23)c1F)c1cccc(Cl)c1Cl | < 1 | < 10 | −6 | < 0.5 |  |  |  |  |  |
| O=S(=O)(Nc1ccc(F)c(Nc2ncnc3ccc(-n4cnc5ccccc54)nc23)c1F)c1scc(Cl)c1Cl |  |  |  |  | < 1 | < 10 |  |  | HCT116 pERK Ymin % [1, 12]: −3%; IC50 [1, 13]: < 0.5 µM |
| Cc1c(Cl)cccc1S(=O)(=O)Nc1ccc(F)c(Nc2ncnc3ccc(-n4cc(C(=O)N5CCN(C)CC5)nc4C)nc23)c1F |  |  |  |  | < 1 | 10 to 50 | 0.9 | 1 to 10 |  |
| CCC1(O)CCN(c2cccc3c2nnn3-c2ccc3ncnc(Nc4c(F)ccc(NS(=O)(=O)c5cccc(Cl)c5Cl)c4F)c3n2)CC1 | 1 to 10 | 10 to 50 | −7 | < 0.5 |  |  |  |  |  |
| CC(=O)N1CCN(c2cccc3c2ncn3-c2ccc3ncnc(Nc4c(F)ccc(NS(=O)(=O)c5cccc(Cl)c5Cl)c4F)c3n2)CC1 | < 1 | < 10 | −10 | < 0.5 |  |  |  |  |  |
| Cc1c(F)cccc1S(=O)(=O)Nc1ccc(F)c(Nc2ncnc3ccc(-n4nc(C(=O)N5CCC(O)CC5)c5ccccc54)nc23)c1F |  |  |  |  | < 1 | 10 to 50 | −4.8 | < 0.5 |  |
| O=S(=O)(Nc1ccc(F)c(Nc2ncnc3ccc(-n4cnc5ccccc54)nc23)c1F)c1cccc(F)c1C(F)(F)F |  |  |  |  | < 1 | < 10 |  |  | HCT116 pERK Ymin % [1, 12]: −3%; IC50 [1, 13]: < 0.5 µM |
| Cc1c(Cl)cccc1S(=O)(=O)Nc1ccc(F)c(Nc2ncnc3ccc(-n4cc(C(=O)N5CCCNCC5)c5ccccc54)nc23)c1F |  |  |  |  |  |  |  |  | IC50 (BRAF; [5]): < 1 nM; IC50 (CRAF; [6]): 10 to 50 nM; HCT116 pERK Ymin % [1, 7]: −2%; IC50 [1, 8]: 1 to 10 µM |
| CCC1(O)CCN(c2cccc3c2ncn3-c2ccc3ncnc(Nc4c(F)ccc(NS(=O)(=O)c5ccc(OC)c(Cl)c5C)c4F)c3n2)CC1 | 1 to 10 | 10 to 50 | 4 | < 0.5 |  |  |  |  |  |
| O=S(=O)(Nc1ccc(F)c(Nc2ncnc3ccc(-n4nnc5c(N6CCC7(CCOC7)CC6)cccc54)nc23)c1F)c1cccc(Cl)c1Cl | > 10 | > 50 | −9 | < 0.5 |  |  |  |  |  |
| CN(C)C(=O)Nc1cccc2c1ncn2-c1ccc2ncnc(Nc3c(F)ccc(NS(=O)(=O)c4ccccc4Cl)c3F)c2n1 |  |  |  |  | 1 to 10 | 10 to 50 | 12 | 0.5 to 1 |  |
| O=S(=O)(Nc1ccc(F)c(Nc2ncnc3ccc(-n4cnc5c(N6CCC(O)(CO)CC6)cccc54)nc23)c1F)c1cccc(Cl)c1Cl | < 1 | < 10 | 0.7 | < 0.5 |  |  |  |  |  |
| Cc1c(Cl)cccc1S(=O)(=O)Nc1ccc(F)c(Nc2ncnc3ccc(-n4nc(C(N)=O)cc4C)nc23)c1F |  |  |  |  | 1 to 10 | 10 to 50 | −11 | 1 to 10 |  |
| CN(CCCO)c1cccc2c1ncn2-c1ccc2ncnc(Nc3c(F)ccc(NS(=O)(=O)c4cccc(Cl)c4Cl)c3F)c2n1 | 1 to 10 | 10 to 50 | −5 | < 0.5 |  |  |  |  |  |
| COC1CCN(c2cccc3c2ncn3-c2ccc3ncnc(Nc4c(F)ccc(NS(=O)(=O)c5cccc(F)c5C)c4F)c3n2)CC1 | 1 to 10 | 10 to 50 | −3.6 | < 0.5 |  |  |  |  |  |
| COc1ccc(S(=O)(=O)Nc2ccc(F)c(Nc3ncnc4ccc(-n5ccnn5)nc34)c2F)c(C)c1 |  |  |  |  | > 10 | > 50 | 3 | 1 to 10 |  |
